Laboratory results taken from US8980830B2 (priority 2007, dated 2015).

Sequences of proteins named here, by UniProt entry; tags and fusion partners are left off. Residues count along the entry.
UniProt P43220, 24-463: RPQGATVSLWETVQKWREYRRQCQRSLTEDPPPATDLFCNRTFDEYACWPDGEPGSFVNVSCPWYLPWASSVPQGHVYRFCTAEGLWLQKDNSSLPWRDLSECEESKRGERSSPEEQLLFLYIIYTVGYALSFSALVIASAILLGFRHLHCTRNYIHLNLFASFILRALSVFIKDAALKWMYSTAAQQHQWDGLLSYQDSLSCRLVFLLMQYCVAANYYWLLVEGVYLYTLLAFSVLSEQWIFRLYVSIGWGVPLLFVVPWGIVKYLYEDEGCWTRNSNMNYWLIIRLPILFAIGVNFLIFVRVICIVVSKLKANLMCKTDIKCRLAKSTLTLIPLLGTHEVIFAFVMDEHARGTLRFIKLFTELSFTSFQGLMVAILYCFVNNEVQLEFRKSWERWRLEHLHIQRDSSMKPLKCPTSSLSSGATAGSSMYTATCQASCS
UniProt P47871, 26-477: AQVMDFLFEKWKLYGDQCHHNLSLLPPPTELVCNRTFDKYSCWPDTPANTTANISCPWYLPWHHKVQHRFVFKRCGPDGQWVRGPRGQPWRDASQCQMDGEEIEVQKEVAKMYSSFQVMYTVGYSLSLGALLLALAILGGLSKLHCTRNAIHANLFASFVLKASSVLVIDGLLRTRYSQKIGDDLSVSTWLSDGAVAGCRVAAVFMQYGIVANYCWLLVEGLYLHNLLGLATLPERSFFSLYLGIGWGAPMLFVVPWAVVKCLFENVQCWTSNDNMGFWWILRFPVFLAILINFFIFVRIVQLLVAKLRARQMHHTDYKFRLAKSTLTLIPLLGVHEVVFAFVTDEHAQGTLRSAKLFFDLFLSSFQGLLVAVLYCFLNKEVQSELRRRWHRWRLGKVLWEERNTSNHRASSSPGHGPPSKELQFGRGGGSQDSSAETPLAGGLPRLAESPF

How the values were obtained:
GLP-1 Receptor = GLP-1 Receptor (Homo sapiens, UniProt P43220); assay: Functional assay, cAMP induction (luciferase reporter, HEK293) at GLP-1 receptor; type: cell-based; details: EC50 at the GLP-1 receptor, Example 22; SD in parentheses
Glucagon Receptor = Glucagon Receptor (Homo sapiens, UniProt P47871); assay: cAMP inhibition: antagonism of glucagon-induced cAMP at glucagon receptor; type: cell-based; parameters: expressed in transfected cells; host or cells: HEK293; details: IC50 at the glucagon receptor in response to 0.2 nM glucagon, Example 22; two assays, SD in parentheses

CSCC[C@H](NC(=O)[C@H](CC(C)C)NC(=O)[C@H](Cc1c[nH]c2ccccc12)NC(=O)[C@H](CCC(N)=O)NC(=O)[C@@H](NC(=O)[C@H](Cc1ccccc1)NC(=O)[C@H](CC(=O)O)NC(=O)[C@H](CCC(N)=O)NC(=O)[C@H](C)NC(=O)[C@H](CCCNC(=N)N)NC(=O)[C@H](CCCNC(=N)N)NC(=O)C(C)(C)NC(=O)[C@H](CC(=O)O)NC(=O)[C@H](CC(C)C)NC(=O)[C@H](Cc1ccc(O)cc1)NC(=O)[C@H](CCCCN)NC(=O)[C@H](CO)NC(=O)[C@H](Cc1ccc(O)cc1)NC(=O)[C@H](CC(=O)O)NC(=O)[C@H](CO)NC(=O)[C@@H](NC(=O)[C@@H](O)Cc1ccccc1)[C@@H](C)O)C(C)C)C(=O)N[C@@H](CC(N)=O)C(=O)N[C@H](C(N)=O)[C@@H](C)O [SEQ ID NO: 97]
EC50 (GLP-1 Receptor): 0.795 µM | IC50 (Glucagon Receptor): 0.00704 µM and 0.022 µM

Values joined by “and” are separate entries in the source; they are usually repeats but may differ in a detail not shown here. Equal entries are not always repeated.
